PubChem BioAssay AID588852 (The Scripps Research Institute Molecular Screening Center, 2011)
Values joined by “and” are separate entries in the source; they are usually repeats but may differ in a detail not shown here. Equal values may be shown once. The list shows a part of the results, in another mix than the full data. Active and inactive are the calls of the source.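 The calls were made as follows: active = percent inhibition above its own plate's cutoff, namely the mean of that plate's compound wells plus 3 SD; inactive = the rest.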

Chains of the proteins cited; added tags and fusions are not shown. Lines headed by an entry give the natural chain unless they say otherwise; changes in a name come on top.
UniProt P11229: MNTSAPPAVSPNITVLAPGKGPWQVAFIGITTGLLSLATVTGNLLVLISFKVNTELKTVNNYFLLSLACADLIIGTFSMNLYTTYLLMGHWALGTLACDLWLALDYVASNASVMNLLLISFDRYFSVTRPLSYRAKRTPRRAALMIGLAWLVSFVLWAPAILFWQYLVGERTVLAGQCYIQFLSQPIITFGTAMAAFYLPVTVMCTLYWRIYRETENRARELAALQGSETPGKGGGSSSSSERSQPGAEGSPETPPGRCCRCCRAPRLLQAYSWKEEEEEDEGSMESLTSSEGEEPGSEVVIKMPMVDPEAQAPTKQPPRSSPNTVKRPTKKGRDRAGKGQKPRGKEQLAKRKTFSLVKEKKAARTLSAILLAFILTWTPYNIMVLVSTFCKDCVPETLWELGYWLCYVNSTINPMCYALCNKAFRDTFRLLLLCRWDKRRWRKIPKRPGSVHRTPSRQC

These compounds were tested against Muscarinic acetylcholine receptor M1 (Homo sapiens) (UniProt P11229) (assay: human M1 muscarinic receptor antagonists, primary screen, CHO-K1 cells, Fluo-8 calcium fluorescence, 1536-well (AID 588852;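 also: peak over basal fluorescence ratio during 140 s after agonist addition; 0% = ACh EC80 plus DMSO and 100% = DMSO alone without agonist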)). Conditions: CHO-K1 hM1, Fluo-8 calcium fluorescence, ACh EC80 antagonist; at 3 µM; stronger effect = higher value.

Row | Structure (SMILES) | inhibition
1 | CN(C(=O)Cc1ccccc1)[C@@H]1CC[C@]2(CCCO2)C[C@H]1N1CCCC1 | inactive: -24.3%
2 | CCOP1(=S)c2c(C)nn(CCC#N)c2N=C(c2ccc(F)cc2)N1C (centres undefined) | inactive: -18.7%
3 | N#CCCN(C(=O)COC(=O)C(O)(c1ccccc1)c1ccccc1)c1ccc(F)cc1 | inactive: -2.54%
4 | CN(C(=O)Cc1ccc(Cl)c(Cl)c1)[C@H]1CC[C@@]2(CCCO2)C[C@@H]1N1CCCC1 | inactive: -3.89%
5 | O=[N+]([O-])c1ccc2c(c1)nnn2O | inactive: -0.48%
6 | CN(C)C(=O)c1cc([N+](=O)[O-])cc2c1-c1c(cc([N+](=O)[O-])cc1[N+](=O)[O-])C2=O | inactive: 33.4%
7 | NC(=O)Nc1ccc([As](=O)(O)O)cc1 | inactive: 5.94%
8 | COc1ccc(CC(C)NCC(O)c2ccc(O)c(NC=O)c2)cc1 (centres undefined) | inactive: -24.2% and inactive: -11.5%
9 | Nc1ccccc1[As](=O)(O)c1ccccc1 | inactive: 10.4%
10 | O=C(O)COc1ccc([As](=O)(O)O)cc1[N+](=O)[O-] | inactive: -8.48%
11 | O=P(Nc1nccs1)(Oc1ccccc1)Oc1ccccc1 | inactive: 5.57%
12 | O=P(Nc1nccs1)(c1ccccc1)c1nc2ccccc2s1 (centres undefined) | inactive: 0.09%
13 | CCOP1(=S)c2c(C)nn(CCC#N)c2N=C(c2ccccc2F)N1C (centres undefined) | inactive: -5.63%
14 | CS(=O)(=O)c1cc([N+](=O)[O-])c2no[n+]([O-])c2c1 | inactive: -15.2%
15 | CCOP(=O)(Nc1cccc2ccccc12)OCC | inactive: -10.9%
16 | COc1cc(C2NCCC3(OCCO3)C2(C)C)cc(OC)c1OC (centres undefined) | inactive: -14.7%
17 | Nc1cccc2c([As](=O)(O)O)cccc12 | inactive: 0.13%
18 | Cc1ccc(NCCc2c([N+](=O)[O-])cc([N+](=O)[O-])cc2[N+](=O)[O-])cc1 | inactive: -3.89%
19 | C[C@H]1C(=O)O[C@@H]2CCN3CC=C(COC(=O)[C@](C)(O)[C@]1(C)O)[C@H]23 | inactive: -21.9%
20 | CCCOP(=S)(Nc1nc(N)cc(=O)[nH]1)OCCC | inactive: -4.32%
21 | Cc1cccc(OCC(=O)OC2CN3CCC2CC3)c1 (centres undefined) | inactive: 6.98%
22 | O=[As](O)(c1cccc(O)c1)c1cccc(O)c1 | inactive: -12.2%
23 | COc1ccc(C[C@H]2NC[C@H](O)[C@H]2OC(C)=O)cc1 | inactive: -21.6%
24 | CS(=O)(=O)c1ccc(Cl)c(NC(=O)COC(=O)C(O)(c2ccccc2)c2ccccc2)c1 | inactive: 3.51%
25 | O=[As](O)(O)c1cccnc1 | inactive: -7.99%

Row | Structure (SMILES) | inhibition
26 | CC(C)/C=N\N=C(\N)N[N+](=O)[O-] | inactive: -1.44%
27 | CN(C(=O)Cc1ccc(Cl)c(Cl)c1)[C@@H]1CCCC[C@H]1N1CCCC1 | inactive: -8.5%
28 | CC1(CBr)Cn2c(nc3ccccc3c2=O)S1 (centres undefined) | inactive: -8.44%
29 | COc1ccccc1CNC(=O)COC(=O)C(O)(c1ccccc1)c1ccccc1 | inactive: 2.02%
30 | CC(C)(C)C(=O)NC(Sc1ncccn1)C(Cl)(Cl)Cl (centres undefined) | inactive: -0.92%
31 | O=P1(N(CCCl)CCCl)NCCC(C(F)(F)F)O1 (centres undefined) | inactive: -3.54%
32 | Clc1n[nH]nc1-c1nn[nH][15n]1 | inactive: -13.8%
33 | CCOP(=O)(NC(=NC(C)c1ccccc1)NC(C)c1ccccc1)OCC (centres undefined) | inactive: -1.97%
34 | O=P1(Nc2ccccn2)COc2ccccc2OC1 | inactive: -10.5%
35 | CCC1=CC2Cc3nc4ccc(Cl)cc4c(N)c3C(C1)C2 (centres undefined) | inactive: 7.79%
36 | CCOP(=O)(Nc1ccc(C)cn1)OCC | inactive: -10.2%
37 | CN(CCCl)Cc1cc(Cl)c(NC2=NCCN2)c(Cl)c1 | inactive: -26.1%
38 | Nc1cccc([As](=O)(O)c2ccccc2)c1 | inactive: 3.94%
39 | O=[N+]([O-])c1cc([As](=O)(O)O)ccc1O | inactive: -17.9%
40 | O=[As](O)(c1cccs1)c1cccs1 | inactive: -12.4%
41 | Cc1ccc(OCC(=O)OC2CN3CCC2CC3)cc1 (centres undefined) | inactive: 9.79%
42 | O=P1(Nc2ccc(Br)cn2)COc2ccccc2OC1 | inactive: -6%
43 | NS(=O)(=O)c1cccc(NC(=O)COC(=O)C(O)(c2ccccc2)c2ccccc2)c1 | inactive: -14.2%
44 | Cc1ccc(S(=O)(=O)N(CCCN)CCCc2c(C)nc(N)[nH]c2=O)cc1 | inactive: -5.58%
45 | O=P1(Nc2ncccn2)COc2ccccc2OC1 | inactive: -11.1%
46 | CCCC1OP(=O)(Nc2ccccc2)OCC1CC (centres undefined) | inactive: 10.6%
47 | O=C(/C=C/c1ccccc1)OC1CN2CCC1CC2 (centres undefined) | inactive: 3.63%
48 | CC1CCC(C(C)C)C(OP(=O)(Nc2ccccn2)c2ccccc2)C1 (centres undefined) | inactive: 5.51%
49 | Cc1ccc(C(=O)OC2CN3CCC2CC3)cc1 (centres undefined) | inactive: 6.48%
50 | Cc1nn(-c2ccccc2)c2c1P(=O)(N1CCOCC1)N(C)C(c1ccccc1)=N2 (centres undefined) | inactive: -2.76%

Row | Structure (SMILES) | inhibition
51 | O=P(Nc1ccccn1)(c1cccc2ccccc12)c1cccc2ccccc12 | inactive: -1.88%
52 | Cc1cc(SC(NC=O)C(Cl)(Cl)Cl)ncn1 (centres undefined) | inactive: -10.6%
53 | O=[N+]([O-])c1ccc(Nc2ccc(Oc3ccc([N+](=O)[O-])cc3[N+](=O)[O-])cc2)c([N+](=O)[O-])c1 | inactive: 12.2%
54 | CCOC(=O)Nc1cccc([As](=O)(O)O)c1 | inactive: -14.3%
55 | COP(=O)(OC)N1CC1c1ccccc1 (centres undefined) | inactive: -11.5%
56 | Cc1cc(SC(NC(=O)c2ccccc2)C(Cl)(Cl)Cl)nc(C(C)C)n1 (centres undefined) | inactive: 1.22%
57 | CCOC(=O)Nc1ccc([As](=O)(O)O)c(O)c1 | inactive: -25.2%
58 | O=C(O)C(O)c1ccc(N(CCCl)CCCl)cc1 (centres undefined) | inactive: -9.31%
59 | C/C=C1/CC(C)C(C)(O)C(=O)OCC2CCN3CCC(OC1=O)C23 (centres undefined) | active: 99.6%
60 | CC1CCNP(=O)(N(CCCl)CCCl)O1 (centres undefined) | inactive: -3.34%
61 | CCC(C)N(CC(C)C)C(=S)SC(NC(C)=O)C(Cl)(Cl)Cl (centres undefined) | inactive: -15.4%
62 | CSc1ccc(Nc2c([N+](=O)[O-])cc([N+](=O)[O-])cc2[N+](=O)[O-])cc1 | active: 29.2%
63 | O=C(OC1CN2CCC1CC2)c1cccc([N+](=O)[O-])c1 (centres undefined) | inactive: 18.2%
64 | CCOC(=O)c1ccc(NC(=O)C(C)(CCl)SC)cc1 (centres undefined) | inactive: -8.02%
65 | O=C(O)C(=O)c1ccc(N(CCCl)CCCl)cc1 | inactive: -7.28%
66 | O=C(Nc1ccncc1[N+](=O)[O-])c1ccc([N+](=O)[O-])cc1[N+](=O)[O-] | inactive: -3.46%
67 | COC(=O)C1(C)COP(=O)(N2CCCC2)OC1 (centres undefined) | inactive: -17.2%
68 | COP1(=S)c2c(C)nn(CCC#N)c2N=C(c2ccc(F)cc2)N1C (centres undefined) | inactive: -5.91%
69 | O=[N+]([O-])c1cc(Oc2ccc([N+](=O)[O-])cc2C(F)(F)F)cc([N+](=O)[O-])c1 | inactive: -11.3%
70 | COc1ccc(N/C(=N/P(=O)(N2CCOCC2)N2CCOCC2)N2CCOCC2)cc1 | inactive: -6.67%
71 | O=P1(N(CCCl)CCCl)OCCCN1CCCl (centres undefined) | inactive: -5.75%
72 | O=P1(N(CCCl)CCCl)Nc2ccccc2N1 | inactive: -7.1%
73 | COc1cc(I)ccc1[As](=O)(O)O | inactive: -9.23%
74 | COc1ccc2nc(NP(=O)(c3ccccc3)c3ccccc3)sc2c1 | inactive: 2.7%
75 | Cc1c2c(nc3ccccc13)SC(C(Cl)Cl)C2 (centres undefined) | inactive: -6.97%

Row | Structure (SMILES) | inhibition
76 | Cc1cc(=O)[nH]c(N[N+](=O)[O-])n1 | inactive: -15.1%
77 | O=[N+]([O-])c1cc([N+](=O)[O-])c(-c2ccn[nH]2)s1 | inactive: 1.84%
78 | CC(C)NC(=O)NP(=O)(Oc1ccccc1)Oc1ccccc1 | inactive: -10%
79 | O=C(OC1CN2CCC1CC2)c1cccc2[nH]cnc12 (centres undefined) | inactive: -10.3%
80 | CCN(CC)C(=S)SC(NC=O)C(Cl)(Cl)Cl (centres undefined) | inactive: -22.6%
81 | ClCCSc1nnc(-c2cccnc2)o1 | inactive: -7.52%
82 | COC(=O)C1(C)COP(=O)(N2CCCCCC2)OC1 (centres undefined) | inactive: -13.9%
83 | CC(C)c1ccc(OP(=O)(Nc2ccccn2)Oc2ccccc2F)cc1 (centres undefined) | inactive: -0.15%
84 | CC(Cc1ccc(O)cc1)NCC(O)c1cc(O)cc(O)c1 (centres undefined) | inactive: -17.3%
85 | Cc1ccc(OP(=O)(Nc2ccc([N+](=O)[O-])cn2)Oc2ccc(C)cc2)cc1 | inactive: -7.53%
86 | Cc1ccc2nc3c(c(C)c2c1)CC(C(Cl)Cl)S3 (centres undefined) | inactive: -18.1%
87 | O=[N+]([O-])c1ccc(-c2cc([N+](=O)[O-])c(O)c([N+](=O)[O-])c2)cc1 | inactive: -11.8%
88 | C[As](=O)(O)c1cccc(C(=O)O)c1 | inactive: -3.78%
89 | O=[As](O)(c1ccc(O)cc1)c1ccccc1O | inactive: -2.83%
90 | Nc1cccc2ccc([As](=O)(O)O)cc12 | inactive: -7.01%
91 | CCN(N=Nc1nonc1N)c1nonc1N | inactive: -12.4%
92 | Cc1ccc(NP(=O)(Oc2ccccc2F)Oc2ccccc2F)nc1 | inactive: 18.9%
93 | CN(C(=O)Cc1ccc(Cl)c(Cl)c1)[C@H]1CCCC[C@@H]1N1CCCC1 | inactive: -13.5%
94 | Cc1cc(SC(NC(=O)c2ccc(F)cc2)C(Cl)(Cl)Cl)ncn1 (centres undefined) | inactive: 0.79%
95 | CCOP(=O)(Nc1ccccc1)OCC | inactive: 0.03%
96 | O=P(Nc1nc2ccc(Cl)cc2s1)(c1ccccc1)c1ccccc1 | inactive: 17.2%
97 | CN(C)P(=O)(N(C)C)n1c(Nc2ccccc2)nnc1-c1ccccc1 | inactive: -9.29%
98 | CCCC1OP(N)(=O)OCC1CC (centres undefined) | inactive: -17.3%
99 | CC(=O)O[C@]1(C)C(=O)OC/C2=C/CN(C)CCC(OC(=O)[C@@](O)(C(C)O)C[C@H]1C)C2=O (some centres undefined) | inactive: -3.93%
